# UUG fidelity: modulators of yeast start codon fidelity, primary screen, whole organism, S. cerevisiae, single point, plate reader | S. cerevisiae UUG-firefly luciferase reporter, luminescence/redox ratio | activity score, % at 18.7 µM | hit rate 0.13% among 350,000;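 active = replicate mean at a twofold rise or more, about +100% in these data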;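 note: firefly luciferase made from a UUG start codon reports start codon fidelity; reporter light over untreated wells divided by growth signal over untreated wells; some hits fall short of that in this replicate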
# Rtt109 HAT inh: inhibitors of Candida albicans Rtt109/Vps75 histone acetyltransferase | Q5AAJ8 | purified Rtt109/Vps75, ThioGlo CoA-SH fluorescence, 4 h | inhibition, % at 34.9 µM | 0.16% of 330,000 active;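 active = inhibition of at least 50% in every replicate; inconclusive = best replicate reaches 50% inhibition but some replicates fall short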
# C2C12 statin: suppressors of simvastatin-induced myotoxicity in C2C12 myotubes. ATP luminescence, 48 h; scaled: DMSO 0, geranylgeraniol control 100. rescue of ATP level, % at 7.49 µM. 0.78% of 330,000 active;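 active = mean ATP rescue above about 67%, or every replicate alone reaching that limit, limit read from the data, passing the limit was not always enough; inconclusive = no clear call, values can overlap the other calls; inactive = mean under the limit and some replicate under it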;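 also: myotubes were challenged with 10 µM simvastatin during compound exposure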
# Cneo AK release: causes C. neoformans cell lysis; lysis activity, % at 15 µM; AID 651654; 0.2% of 360,000 active; adenylate kinase release luminescence, 4 h; normalised: neutral wells 0, clomiphene wells 100;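 active = mean lysis activity across replicates of at least 80%, whatever share of replicates individually reach that level; inactive = mean lysis activity below 80%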
#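 Schedule: static 4 h at 37 °C with compound, 1 h detection; system: C. neoformans cells; benchmarks: Clomiphene as positive control; buffer or medium: fresh YPD medium; measure: luminescence rise reflecting yeast cell lysis; measured by: luminescent adenylate kinase detection reagent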
# CDK5 p35 inh: inhibitors of human CDK5/p35 kinase | AID 488839 | inhibition, % at 10 µM | Recombinant CDK5/p35, ADP-Glo luminescence, 60 min | 0.01% of 330,000 active | Q00535+Q15078;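 active = highest replicate inhibition of at least 50% and at least 75% of replicates reaching 50%; inconclusive = only one of the two criteria met; inactive = both criteria failed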;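 also: plate controls were DMSO neutral control for no effect and GW8510 at 10 µM for full effect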
# Numbers without * were called inactive; ? = inconclusive; . = not tested or not shown. An excerpt weighted towards active compounds, which were near 1% of everything screened.
1	CC(C)NC(=O)Nc1ccc2c(c1)CC(=O)N([C@@H](C)CO)C[C@@H](C)[C@@H](CN(C)S(=O)(=O)c1ccc(Cl)cc1)O2
2	COc1ccc(S(=O)(=O)Nc2ccc3c(c2)CC(=O)N([C@H](C)CO)C[C@H](C)[C@@H](CN(C)Cc2ccc(Cl)c(Cl)c2)O3)cc1
3	C[C@H]1CN([C@@H](C)CO)C(=O)Cc2cc(NS(=O)(=O)c3ccc(F)cc3)ccc2O[C@H]1CN(C)Cc1ccc(Cl)c(Cl)c1
4	COc1ccc(S(=O)(=O)Nc2ccc3c(c2)CC(=O)N([C@@H](C)CO)C[C@@H](C)[C@H](CN(C)Cc2ccc(Cl)c(Cl)c2)O3)cc1
5	C[C@@H]1CN([C@H](C)CO)C(=O)Cc2cc(NS(=O)(=O)c3ccc(F)cc3)ccc2O[C@H]1CN(C)Cc1ccc(Cl)c(Cl)c1
6	C[C@@H]1CN([C@@H](C)CO)C(=O)Cc2cc(NS(=O)(=O)c3ccc(Cl)cc3)ccc2O[C@H]1CN(C)Cc1ccc(Cl)c(Cl)c1

assay / compound	1	2	3	4	5	6
UUG fidelity	25	15	.	-1	.	-9
Rtt109 HAT inh	.	.	.	.	.	.
C2C12 statin	-19	201*	18	?	83*	?
Cneo AK release	102*	1	.	11	.	4
CDK5 p35 inh	.	.	.	.	.	.

# Arranged by SMILES length (smallest number first): some entries from above.
1	CC(C)NC(=O)Nc1ccc2c(c1)CC(=O)N([C@@H](C)CO)C[C@@H](C)[C@@H](CN(C)S(=O)(=O)c1ccc(Cl)cc1)O2
2	COc1ccc(S(=O)(=O)Nc2ccc3c(c2)CC(=O)N([C@H](C)CO)C[C@H](C)[C@@H](CN(C)Cc2ccc(Cl)c(Cl)c2)O3)cc1
4	COc1ccc(S(=O)(=O)Nc2ccc3c(c2)CC(=O)N([C@@H](C)CO)C[C@@H](C)[C@H](CN(C)Cc2ccc(Cl)c(Cl)c2)O3)cc1

assay / compound	1	2	4
UUG fidelity	25	15	-1
Rtt109 HAT inh	.	.	.
C2C12 statin	-19	201*	?
Cneo AK release	102*	1	11
CDK5 p35 inh	.	.	.

# The results go on.
7	CCNC(=O)[C@@H]1[C@@H](CO)[C@@H]2Cn3c(ccc(C4=CCCC4)c3=O)[C@H]1N2Cc1ccncc1
8	C[C@H](CO)N1C[C@H](C)[C@H](CN(C)Cc2ccc(Cl)c(Cl)c2)Oc2ccc(NS(=O)(=O)c3ccccc3)cc2C1=O
9	C[C@@H]1CN([C@@H](C)CO)S(=O)(=O)c2ccc(C#CC3CCCCC3)cc2O[C@H]1CN(C)C
10	C[C@H]1CN([C@@H](C)CO)C(=O)Cc2cc(NS(=O)(=O)c3ccc(F)cc3)ccc2O[C@@H]1CN(C)S(=O)(=O)c1ccc(F)cc1
11	C[C@H]1CN([C@@H](C)CO)C(=O)Cc2cc(NS(=O)(=O)c3ccc(Cl)cc3)ccc2O[C@@H]1CN(C)CC1CCCCC1
12	C[C@@H]1CN([C@H](C)CO)C(=O)Cc2cc(NS(=O)(=O)c3ccc(Cl)cc3)ccc2O[C@H]1CN(C)Cc1ccc(Cl)c(Cl)c1

assay / compound	7	8	9	10	11	12
UUG fidelity	-1	2	43	35	.	-9
Rtt109 HAT inh	.	.	.	.	.	.
C2C12 statin	20	7	-46	-1	112*	91*
Cneo AK release	-10	1	8	98*	.	-3
CDK5 p35 inh	.	.	.	.	.	.

13	COc1ccc(NC(=O)N(C)C[C@H]2Oc3c(NC(=O)c4cnccn4)cccc3C(=O)N([C@@H](C)CO)C[C@H]2C)cc1
14	COC(=O)C[C@H]1C[C@H]2c3cc(NC(=O)CN(C)C)ccc3O[C@H]2[C@@H](CO)O1
15	Cc1ccc(-c2csc(NC(=O)c3ccc(C)o3)n2)cc1
16	Cc1ccc(-c2csc(NC(=O)c3ccc([N+](=O)[O-])o3)n2)cc1
17	CC(C)NC(=O)N1[C@H](CO)[C@@H](c2ccccc2)[C@H]1CN(C)C(=O)c1ccncc1
18	C[C@@H]1CN([C@H](C)CO)C(=O)Cc2cc(NC(=O)c3ccncc3)ccc2O[C@@H]1CN(C)S(C)(=O)=O

assay / compound	13	14	15	16	17	18
UUG fidelity	3	.	.	-12	-16	-6
Rtt109 HAT inh	.	.	0	.	.	.
C2C12 statin	11	-1	.	91*	2	-4
Cneo AK release	-1	-1	.	0	1	4
CDK5 p35 inh	.	.	.	0	.	.

19	CCNC(=S)NNC(=O)c1cccn(Cc2ccc(Cl)cc2Cl)c1=O
20	C=CCNC(=S)NNC(=O)c1cccn(Cc2ccc(Cl)cc2Cl)c1=O
21	COCCNC(=O)c1nn(-c2cc(OC)cc(OC)c2)c(=O)c2ccccc12
22	COC(=O)COc1cc(C)cc2oc(=O)c(CC(=O)OC)c(C)c12
23	Cc1ccc(S(=O)(=O)N(C)C[C@H]2Oc3c(NC(=O)Nc4ccc(F)cc4)cccc3C(=O)N([C@@H](C)CO)C[C@H]2C)cc1
24	CC(c1ccco1)N(C(=O)Nc1ccc(Cl)cc1)c1ccccn1 (configuration not stated)

assay / compound	19	20	21	22	23	24
UUG fidelity	-38	-20	-3	-2	-5	-10
Rtt109 HAT inh	6	-4	-4	-1	.	5
C2C12 statin	82*	24	110*	108*	62	124*
Cneo AK release	2	4	0	-1	0	-3
CDK5 p35 inh	2	1	-1	1	.	3

# Down the list, as entered above:
# UUG fidelity, entries 19 to 24: -38, -20, -3, -2, -5, -10
# Cneo AK release, entries 19 to 24: 2, 4, 0, -1, 0, -3
# Rtt109 HAT inh, entries 19 to 24: 6, -4, -4, -1, ., 5

# Continued.
25	N#Cc1c(-c2ccccc2)nc(SCC(=O)N2c3ccccc3Sc3ccccc32)[nH]c1=O
26	N#Cc1c(-c2ccccc2)nc(SCC(=O)N(c2ccccc2)c2ccccc2)[nH]c1=O
27	Cc1cccc(NC2=NC(C)(C)N=C(N)N2)c1C
28	Cc1ccccc1NC1=NC(C)(C)N=C(N)N1
29	COC(=O)c1ccc(/C=C2/SC(=S)N(CCC(=O)N3CCOCC3)C2=O)cc1
30	C[C@@H]1CCCCO[C@@H](CN(C)C(=O)NC2CCCCC2)[C@H](C)CN([C@H](C)CO)C(=O)c2cc(NC(=O)c3ccncc3)ccc2O1

assay / compound	25	26	27	28	29	30
UUG fidelity	.	3	-10	-12	3	-2
Rtt109 HAT inh	58*	26	1	-4	10	.
C2C12 statin	.	-6	112*	-3	71*	.
Cneo AK release	.	0	-5	-1	5	4
CDK5 p35 inh	-1	-1	1	-1	-1	.

31	CN(CC(=O)NCc1ccco1)CC(=O)Nc1ccc(F)c(F)c1F
32	CCCCC(=O)Nc1ccc(NC(=O)c2cc(OC)c(OC)c(OC)c2)cn1
33	C[C@@H]1CN([C@H](C)CO)C(=O)c2cccc(NC(=O)Nc3ccc(F)cc3)c2O[C@H]1CN(C)C(=O)Nc1ccc2c(c1)OCO2
34	Cc1ccc(N2CCN(/N=C/c3sccc3C)CC2)cc1
35	c1ccc2[nH]c(CSc3nnc(-c4ccncc4)o3)nc2c1
36	O=C(C[C@@H]1CC[C@@H]2[C@H](COC[C@H](O)CN2C(=O)c2ccc3c(c2)OCO3)O1)NCCN1CCCCC1
37	CC1CCC2(CC1)Nc1ccccc1C(=O)N2c1ccccc1 (configuration not stated)
38	O=C1c2ccccc2NC2(CCCCC2)N1c1ccc(O)cc1
39	COCC(=O)Nc1ccc2c(c1)C(=O)N(C)[C@@H]1CC[C@@H](CC(=O)NCC3CC3)O[C@H]1CO2

assay / compound	31	32	33	34	35	36	37	38	39
UUG fidelity	-5	-4	-3	-25	-19	.	-2	-41	7
Rtt109 HAT inh	-1	-2	.	13	-16	.	-8	-6	.
C2C12 statin	109*	82*	13	140*	85*	-10	.	137*	-6
Cneo AK release	2	1	0	3	-9	-2	0	4	-3
CDK5 p35 inh	2	-3	.	1	-1	.	1	1	.
